Results taken from article PMC6376317, “Fluoromethylcyclopropylamine derivatives as potential in vivo toxicophores – A cautionary disclosure” (Bioorganic & Medicinal Chemistry Letters, 2019).

By UniProt entry, the sequences of proteins in these tests, tags left out.
UniProt Q86W56, whole entry, species assumed: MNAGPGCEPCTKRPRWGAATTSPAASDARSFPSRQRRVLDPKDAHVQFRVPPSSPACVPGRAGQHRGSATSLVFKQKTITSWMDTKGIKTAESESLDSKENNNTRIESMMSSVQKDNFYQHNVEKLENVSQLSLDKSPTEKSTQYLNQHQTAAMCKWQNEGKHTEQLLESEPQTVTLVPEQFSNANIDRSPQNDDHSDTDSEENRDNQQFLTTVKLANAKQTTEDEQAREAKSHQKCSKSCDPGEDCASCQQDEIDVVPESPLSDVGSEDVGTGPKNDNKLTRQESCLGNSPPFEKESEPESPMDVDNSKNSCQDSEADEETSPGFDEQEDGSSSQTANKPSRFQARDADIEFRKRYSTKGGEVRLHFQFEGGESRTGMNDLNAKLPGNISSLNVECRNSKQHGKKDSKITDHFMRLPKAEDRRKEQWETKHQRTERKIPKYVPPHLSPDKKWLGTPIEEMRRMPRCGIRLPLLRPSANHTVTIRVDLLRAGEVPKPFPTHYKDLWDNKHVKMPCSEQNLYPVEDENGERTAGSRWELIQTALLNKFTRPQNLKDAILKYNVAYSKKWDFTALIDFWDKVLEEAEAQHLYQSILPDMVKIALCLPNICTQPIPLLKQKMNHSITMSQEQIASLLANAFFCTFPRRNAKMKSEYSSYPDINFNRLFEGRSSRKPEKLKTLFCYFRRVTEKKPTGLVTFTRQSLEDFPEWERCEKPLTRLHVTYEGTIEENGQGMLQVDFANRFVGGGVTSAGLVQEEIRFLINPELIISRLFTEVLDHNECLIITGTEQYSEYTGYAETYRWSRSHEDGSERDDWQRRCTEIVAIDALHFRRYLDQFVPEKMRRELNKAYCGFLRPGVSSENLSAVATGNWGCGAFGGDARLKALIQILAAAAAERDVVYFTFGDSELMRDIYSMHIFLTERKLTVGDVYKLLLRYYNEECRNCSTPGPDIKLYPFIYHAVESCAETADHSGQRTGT

Assays:
PARG [1] = molecular target: T1, PARG (Homo sapiens, UniProt Q86W56); type: biochemical; conditions: geometric mean of at least two independent determinations; read-out: PARG Enzyme Activity
PARG [2] = molecular target: T1, PARG; type: cell-based; conditions: geometric mean of at least two independent determinations; read-out: PARG Cell Assay
[3] = In vivo pharmacokinetics in CD-1 mice; parameters: species or system mouse; conditions: oral dose 5 (mg/kg); defined as [Cmax(free)]/Cell IC50; male CD-1 mice
Procedure: Pharmacokinetics were studied in 6-8 week old male CD-1 mice following single intravenous or oral administration. Compounds were formulated as solutions comprising up to 10% DMSO with up to 10% Tween80 in saline at a concentration of approximately 1 mM. Doses were administered at 1 mg/kg (intravenous) or 5 mg/kg (oral gavage) unless otherwise stated. Blood samples were collected as dried blood spots (Agilent Bond Elut DMS cards) and assayed following solvent extraction using methanol, through a phospholipid removal plate (Phree phospholipid removal plates, Phenomenex) followed by LC-MS/MS analysis. The time-points for blood collection were as follows: oral (0.5, 1, 3, 5 and 24 h); intravenous (0.1, 0.25, 0.75, 2, 5 and 24 h). The resulting concentration-time data were analyzed by non-compartmental methods (PK Solver, Excel Add-In).

With `CCn1c(=O)n(Cc2cnn(C)c2)c(=O)c2cc(S(=O)(=O)NC3(C)CC3)ccc21` [Compound 9] the IC50 (PARG [1]) was 170 nM, the IC50 (PARG [2]) was 80 nM and the “Fold exposure relative to cell IC50” value [3] was 6.4.

Where two headings read alike, the source gives them in different places.
